Measured values taken from US20260193238A1, “PHARMACEUTICAL COMPOUNDS AS PARP7 AND/OR PARP1 INHIBITORS” (Duke Street Bio Limited, priority 2022, published 2026).

By UniProt entry, the sequences of proteins in these tests, tags left out. Residues count along the entry.
UniProt Q7Z3E1, 456-657 limits assumed: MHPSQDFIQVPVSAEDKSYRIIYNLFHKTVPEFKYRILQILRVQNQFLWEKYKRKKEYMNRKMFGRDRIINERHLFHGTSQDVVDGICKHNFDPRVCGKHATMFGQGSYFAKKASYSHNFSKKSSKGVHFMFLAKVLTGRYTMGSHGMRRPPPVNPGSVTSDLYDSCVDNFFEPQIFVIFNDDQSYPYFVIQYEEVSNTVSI
UniProt P09874, whole entry: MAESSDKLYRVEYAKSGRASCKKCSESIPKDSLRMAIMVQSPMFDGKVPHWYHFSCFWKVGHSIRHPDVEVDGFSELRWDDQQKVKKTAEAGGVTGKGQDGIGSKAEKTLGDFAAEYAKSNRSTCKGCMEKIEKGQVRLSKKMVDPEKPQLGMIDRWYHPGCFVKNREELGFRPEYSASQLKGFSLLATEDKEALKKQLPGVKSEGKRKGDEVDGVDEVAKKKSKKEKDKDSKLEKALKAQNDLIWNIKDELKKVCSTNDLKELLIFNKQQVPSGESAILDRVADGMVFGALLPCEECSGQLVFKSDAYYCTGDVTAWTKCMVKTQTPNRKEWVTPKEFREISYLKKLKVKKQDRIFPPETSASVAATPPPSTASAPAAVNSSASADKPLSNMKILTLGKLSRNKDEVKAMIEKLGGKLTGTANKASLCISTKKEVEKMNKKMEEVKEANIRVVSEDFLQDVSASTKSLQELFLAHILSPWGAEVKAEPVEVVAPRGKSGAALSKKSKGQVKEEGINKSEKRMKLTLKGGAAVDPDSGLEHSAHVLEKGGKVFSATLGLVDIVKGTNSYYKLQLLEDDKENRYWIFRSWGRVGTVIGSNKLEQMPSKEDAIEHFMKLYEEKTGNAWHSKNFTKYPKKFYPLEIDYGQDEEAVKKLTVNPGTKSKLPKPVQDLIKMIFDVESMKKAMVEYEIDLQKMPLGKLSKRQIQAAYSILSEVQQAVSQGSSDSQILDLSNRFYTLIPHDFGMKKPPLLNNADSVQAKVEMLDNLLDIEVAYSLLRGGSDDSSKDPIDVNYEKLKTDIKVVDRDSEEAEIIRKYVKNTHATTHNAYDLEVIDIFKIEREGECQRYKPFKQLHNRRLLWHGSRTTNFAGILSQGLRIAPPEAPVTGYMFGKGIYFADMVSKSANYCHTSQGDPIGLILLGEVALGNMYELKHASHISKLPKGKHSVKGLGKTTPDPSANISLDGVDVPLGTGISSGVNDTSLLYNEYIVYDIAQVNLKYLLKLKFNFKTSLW

Experiments:
[1] = target: PARP7 (amino acids 456-657) (Homo sapiens, UniProt Q7Z3E1); test: PARP7 biochemical DELFIA assay (auto-MARylation); details: read-out: PARP7 activity
PARP1 = PARP1 (Homo sapiens, UniProt P09874); test: PARP1 biochemical DELFIA assay (auto-PARylation); details: read-out: PARP1 activity

SMILES | IC50 ([1]; Table 1A) [nM] | IC50 (PARP1; Table 1A) [nM] | IC50 ([1]; Table 1) [nM] | IC50 (PARP1; Table 1) [nM]
CC1(c2cc(C(F)(F)F)c(=O)[nH]n2)CCCN1CC(=O)N1CCN(c2ncc(C(F)(F)F)cn2)CC1 (racemic) | < 10 | 10 to 100 | – | –
CNC(=O)c1ccc(N2CCN(C(=O)CCN3CCCC(c4cc(C(F)(F)F)c(=O)[nH]n4)C3)CC2)cn1 (racemic) | – | – | 1000 to 10000 | 100 to 1000
Cc1cc(C2CCCN2CC(=O)N2CCN(c3ncc(C(F)(F)F)cn3)CC2)n[nH]c1=O (racemic) | 10 to 100 | 100 to 1000 | – | –
N#Cc1cnc(N2CCN(C(=O)CCN3CCCC(c4cc(C(F)(F)F)c(=O)[nH]n4)C3)CC2)nc1 (racemic) | – | – | 100 to 1000 | 100 to 1000
O=C(CN1CCC1c1cc(C(F)(F)F)c(=O)[nH]n1)N1CCN(c2ncc(C(F)(F)F)cn2)CC1 (racemic) | < 10 | 10 to 100 | – | –
O=C(CN1CCCCC1c1cc(C(F)(F)F)c(=O)[nH]n1)N1CCN(c2ncc(C(F)(F)F)cn2)CC1 (racemic) | – | – | 100 to 1000 | 1000 to 10000
O=C(CN1CCCC1c1cc(C(F)(F)F)c(=O)[nH]n1)N1CCN(c2ncc(C(F)(F)F)cc2F)CC1 (single isomer, unassigned) [89a] | < 10 | 100 to 1000 | – | –
O=C(CN1CCCC1c1cc(C(F)(F)F)c(=O)[nH]n1)N1CCN(c2ncc(C(F)(F)F)cc2F)CC1 (single isomer, unassigned) [89b] | 100 to 1000 | 1000 to 10000 | – | –
O=C(CN1CCCC1c1cc(C(F)(F)F)c(=O)[nH]n1)N1CCN(c2nc3cc(F)ccc3o2)CC1 (single isomer, unassigned) [93a] | < 10 | < 10 | – | –
O=C(CN1CCCC1c1cc(C(F)(F)F)c(=O)[nH]n1)N1CCN(c2nc3cc(F)ccc3[nH]2)CC1 (single isomer, unassigned) [108a] | < 10 | 10 to 100 | – | –
O=C(CN1CCCC1c1cc(C(F)(F)F)c(=O)[nH]n1)N1CCN(c2nc3cc(F)ccc3[nH]2)CC1 (single isomer, unassigned) [108b] | 100 to 1000 | 1000 to 10000 | – | –
O=C(CN1CCCC1c1cc(C(F)(F)F)c(=O)[nH]n1)N1C2CCC1CN(c1ncc(C(F)(F)F)cn1)C2 (single isomer, unassigned) [109a] | < 10 | 10 to 100 | – | –
O=C(CN1CCCC1c1cc(C(F)(F)F)c(=O)[nH]n1)N1C2CCC1CN(c1ncc(C(F)(F)F)cn1)C2 (single isomer, unassigned) [109b] | 1000 to 10000 | > 10000 | – | –
O=C(CN1CCCC1c1cc(C(F)(F)F)c(=O)[nH]n1)N1CCN(c2ncc(C(F)F)cn2)CC1 (single isomer, unassigned) [112a] | < 10 | 10 to 100 | – | –
O=C(CN1CCCC1c1cc(C(F)(F)F)c(=O)[nH]n1)N1CCN(c2ncc(C(F)F)cn2)CC1 (single isomer, unassigned) [112b] | 100 to 1000 | 1000 to 10000 | – | –
N#Cc1ccc2oc(N3CCN(C(=O)CN4CCCC4c4cc(C#N)c(=O)[nH]n4)CC3)nc2c1 (single isomer, unassigned) [129a] | 10 to 100 | 100 to 1000 | – | –
N#Cc1ccc2oc(N3CCN(C(=O)CN4CCCC4c4cc(C#N)c(=O)[nH]n4)CC3)nc2c1 (single isomer, unassigned) [129b] | > 10000 | > 10000 | – | –
N#Cc1cc(C2CCCN2CC(=O)N2CCN(c3nc4ccc(Cl)cc4o3)CC2)n[nH]c1=O (single isomer, unassigned) [130a] | < 10 | 10 to 100 | – | –
N#Cc1cc(C2CCCN2CC(=O)N2CCN(c3nc4ccc(Cl)cc4o3)CC2)n[nH]c1=O (single isomer, unassigned) [130b] | 1000 to 10000 | 1000 to 10000 | – | –
N#Cc1cnc(N2CCN(C(=O)CN3CCCC3c3cc(C(F)(F)F)c(=O)[nH]n3)CC2)c(Cl)c1 (single isomer, unassigned) [143a] | < 10 | 100 to 1000 | – | –
N#Cc1cnc(N2CCN(C(=O)CN3CCCC3c3cc(C(F)(F)F)c(=O)[nH]n3)CC2)c(Cl)c1 (single isomer, unassigned) [143b] | 1000 to 10000 | 1000 to 10000 | – | –
O=C(CN1CCCC1c1cc(C(F)(F)F)c(=O)[nH]n1)N1CCN(c2nc3cc(F)ccc3o2)CC1 (single isomer, unassigned) [150a] | < 10 | 10 to 100 | – | –
O=C(CCN1CCC(c2cc(C(F)(F)F)c(=O)[nH]n2)C1)N1CCN(c2ncc(C(F)(F)F)cn2)CC1 (single isomer, unassigned) [Compound 7a] | – | – | 100 to 1000 | 100 to 1000
O=C(CCN1CCN(c2ncc(C(F)(F)F)cn2)CC1)N1CCCC(c2cc(C(F)(F)F)c(=O)[nH]n2)C1 (single isomer, unassigned) [Compound 9a] | – | – | 1000 to 10000 | 1000 to 10000
N#Cc1ccc(N2CCN(C(=O)CCN3CCCC(c4cc(C(F)(F)F)c(=O)[nH]n4)C3)CC2)nc1 (single isomer, unassigned) [Compound 11b] | – | – | 100 to 1000 | 100 to 1000

SMILES | IC50 ([1]; Table 1A) [nM] | IC50 (PARP1; Table 1A) [nM] | IC50 ([1]; Table 1) [nM] | IC50 (PARP1; Table 1) [nM]
O=C(CCN1CCCC(c2cc(C(F)(F)F)c(=O)[nH]n2)C1)N1CCN(c2ncc(OC(F)(F)F)cn2)CC1 (single isomer, unassigned) [Compound 13a] | – | – | 100 to 1000 | 100 to 1000
O=C(CN1CCCC1c1cc(C(F)(F)F)c(=O)[nH]n1)NC1CCN(c2ncc(C(F)(F)F)cn2)CC1 (single isomer, unassigned) [Compound 33b] | 100 to 1000 | > 10000 | – | –
CN(C(=O)CN1CCCC1c1cc(C(F)(F)F)c(=O)[nH]n1)C1CCN(c2ncc(C(F)(F)F)cn2)CC1 (single isomer, unassigned) [Compound 34b] | 10 to 100 | 100 to 1000 | – | –
N#Cc1cnc(N2CCN(C(=O)CN3CCCC3c3cc(C(F)(F)F)c(=O)[nH]n3)CC2)nc1 (single isomer, unassigned) [Compound 36a] | 100 to 1000 | 1000 to 10000 | – | –
CNC(=O)c1ccc(N2CCN(C(=O)CN3CCCC3c3cc(C(F)(F)F)c(=O)[nH]n3)CC2)cn1 (single isomer, unassigned) [Compound 37b] | 100 to 1000 | 10 to 100 | – | –
O=C(CN1CCCC1c1cc(C(F)(F)F)c(=O)[nH]n1)N1CCN(c2cnc(C(F)(F)F)cn2)CC1 (single isomer, unassigned) [Compound 45a] | 1000 to 10000 | 1000 to 10000 | – | –
CNC(=O)c1cnc(N2CCN(C(=O)CN3CCCC3c3cc(C(F)(F)F)c(=O)[nH]n3)CC2)cn1 (single isomer, unassigned) [Compound 54a] | 1000 to 10000 | > 10000 | – | –
CNC(=O)c1ccc(N2CCN(C(=O)CCN3CCC3c3cc(C(F)(F)F)c(=O)[nH]n3)CC2)cn1 (single isomer, unassigned) [Compound 56b] | 1000 to 10000 | 100 to 1000 | – | –
CCc1cc(C2CCCN2CC(=O)N2CCN(c3ncc(C(F)(F)F)cn3)CC2)c[nH]c1=O (single isomer, unassigned) [Compound 57b] | < 10 | 100 to 1000 | – | –
O=C(CN1CCN(c2ncc(C(F)(F)F)cn2)CC1)N1CCCC1c1c[nH]c(=O)c(C(F)(F)F)c1 (single isomer, unassigned) [Compound 63a] | 1000 to 10000 | > 10000 | – | –
O=C(CN1CCCC1c1cc(C(F)(F)F)c(=O)[nH]n1)N1CCC(c2ncc(C(F)(F)F)cn2)CC1 (single isomer, unassigned) [Compound 70a] | 1000 to 10000 | > 10000 | – | –
N#Cc1ccc(N2CCN(C(=O)CN3CCCC3c3cc(C(F)(F)F)c(=O)[nH]n3)CC2)cc1 (single isomer, unassigned) [Compound 71b] | 1000 to 10000 | 1000 to 10000 | – | –
O=C(CN1CCCC1c1cc(C(F)(F)F)c(=O)[nH]n1)N1CCN(c2ncc(OC(F)(F)F)cn2)CC1 (single isomer, unassigned) [Compound 72b] | 10 to 100 | 100 to 1000 | – | –
CNC(=O)c1ccc(N2CCN(C(=O)CCN3CCCC3c3c[nH]c(=O)c(C(F)(F)F)c3)CC2)cn1 (single isomer, unassigned) [Compound 73b] | 1000 to 10000 | 100 to 1000 | – | –
O=C(CN1CCCC1c1cc(C(F)(F)F)c(=O)[nH]n1)N1CCN(c2ccc(C3CC3)cn2)CC1 (single isomer, unassigned) [Compound 79a] | 1000 to 10000 | 1000 to 10000 | – | –
O=C(CN1CCCC1c1cc(C(F)(F)F)c(=O)[nH]n1)N1CCN(c2cc(Cl)c(F)cn2)CC1 (single isomer, unassigned) [Compound 80b] | 100 to 1000 | 1000 to 10000 | – | –
O=C(CN1CCCC1c1cc(C(F)(F)F)c(=O)[nH]n1)N1CCN(c2ccc(OC(F)(F)F)cn2)CC1 (single isomer, unassigned) [Compound 81b] | 100 to 1000 | 1000 to 10000 | – | –
CNC(=O)c1ccc(N2CCN(C(=O)CN3CCOCC3c3cc(C(F)(F)F)c(=O)[nH]n3)CC2)cn1 (single isomer, unassigned) [Compound 90b] | > 10000 | 1000 to 10000 | – | –
O=C(CN1CCCC1c1cc(C(F)(F)F)c(=O)[nH]n1)N1CCN(c2nc3ccc(F)cc3o2)CC1 (single isomer, unassigned) [Compound 95b] | < 10 | < 10 | – | –
O=C(CN1CCCC1c1cc(C(F)(F)F)c(=O)[nH]n1)N1CC2(CCN(c3ncc(C(F)(F)F)cn3)CC2)C1 (single isomer, unassigned) [Compound 110b] | 1000 to 10000 | 100 to 1000 | – | –
N#Cc1cc(C2CCCN2CC(=O)N2CCN(c3nc4ccc(F)cc4o3)CC2)n[nH]c1=O (single isomer, unassigned) [Compound 111a] | 1000 to 10000 | > 10000 | – | –
O=C(CN1CCCC1c1cc(C(F)(F)F)c(=O)[nH]n1)N1CCN(c2ncc(F)cc2Cl)CC1 (single isomer, unassigned) [Compound 116b] | 10 to 100 | 100 to 1000 | – | –
O=C(CN1CCCC1c1cc(C(F)(F)F)c(=O)[nH]n1)N1CCN(c2nc3ccccn3n2)CC1 (single isomer, unassigned) [Compound 117a] | 100 to 1000 | 1000 to 10000 | – | –
Cn1c(N2CCN(C(=O)CN3CCCC3c3cc(C(F)(F)F)c(=O)[nH]n3)CC2)nc2ccc(F)cc21 (single isomer, unassigned) [Compound 119b] | < 10 | 100 to 1000 | – | –

Where two headings read alike, the source gives them in different places.
